The values that follow are results of earlier work, collected in patent US20030158089A1, “Administrative agents via the SMVT transporter” (priority 2002, published 2003).

This data set has as its system human or rat SMVT. The following applies: voltage-clamped Xenopus oocytes; cited from earlier work.

As to `O=C(O)CCCC[C@@H]1SC[C@@H]2NC(=O)N[C@@H]21` [biotin], the Vmax is 25-50 pmol/oocyte/hour and the “maximal sodium-dependent electrogenic response” value is listed as 50-100 nA.
